## Measured affinities in a library of Ab-14 light chain variants

From the AlphaSeq antibody data of Li et al. 2023 (doi:10.1038/s41467-023-39022-2), copy in the FLAb collection.

Binding partner: SARS-CoV-2 spike HR2 peptide, sequence PDVDLGDISGINAS.

Ab-14 is the parent antibody, in scFv form: VH, then a (GGGGS)3 linker, then VL. The heavy chain is unchanged in all variants.
VH: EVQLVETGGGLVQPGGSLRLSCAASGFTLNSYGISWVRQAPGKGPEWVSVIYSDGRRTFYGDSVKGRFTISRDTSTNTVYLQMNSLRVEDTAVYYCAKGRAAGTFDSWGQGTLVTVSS
VL: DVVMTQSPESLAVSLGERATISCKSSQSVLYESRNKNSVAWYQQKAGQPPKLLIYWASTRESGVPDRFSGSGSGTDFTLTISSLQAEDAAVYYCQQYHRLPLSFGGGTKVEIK

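This is the validation round: designs drawn from the data on random variants, tested in the same kind of assay. Their group label is 14L_GP_Gibbs (GP: Gaussian process model; Gibbs: Gibbs sampling; a sequence that several methods proposed may carry one label only). The assay is AlphaSeq: two haploid yeast populations carry antibody and antigen on their surface. The frequency of each diploid, read from paired DNA barcodes, reflects how well the two displayed proteins bind. The ratio of observed to expected reads was calibrated, replicate by replicate, on BCL2-family standards whose Kd was known from biolayer interferometry. There are six technical replicates.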

Positions count from residue 1 of the parent VL; S26M puts M in place of S. Numbers give log10(Kd / nM), so 0 is 1 nM and 3 is 1 µM. Smaller is tighter. A mean of the replicates is given; it leaves out those without a signal. Where no diploid with the target was found in that replicate, the entry reads "nd": below detection, most likely a poor binder, though not proof of it.

changes	log10 Kd, replicates	mean log10 Kd (nM)	empty controls
S26M Y31G K36C W56S S62L	1.27 0.84 0.99 0.43 0.41 0.88	0.80	1/18 (2.86)
S25L S26D Q27G V29D W56E Q96A	0.78 0.49 0.56 0.52 0.41 0.42	0.53	0/18
S25L V29W S33E S38N W56S S62W	-0.20 -0.43 -0.52 -0.75 -0.44 -0.37	-0.45	1/18 (2.96)
K24A S25L V29E N35M W56N S62E	0.11 0.12 0.03 0.03 0.04 0.16	0.08	1/18 (2.70)
S25V S26D Y31G E32Q S38A W56A	1.15 1.16 1.63 0.17 0.65 0.78	0.92	0/18
S25Y Q27F V29E K36Q W56E T59C S62E	0.39 0.51 0.48 1.20 1.20 0.14	0.65	0/18
S25L S26N Q27I V29D L30G S33Q W56E S62D	-0.12 -0.43 -0.43 -0.51 -0.35 -0.13	-0.33	1/18 (2.40)
S25F S26F V29Q S33Q K36Q W56S E61L	1.32 1.55 2.04 1.65 1.33 0.92	1.47	0/18
S25L S26Q Q27G L30G W56G T59Q S62D	-0.02 -0.24 -0.24 -0.41 -0.33 -0.16	-0.24	1/18 (1.30)
S25L S26Q V29W L30E E32G W56N T59Q S62D	nd -0.19 nd 0.80 nd nd	0.31	0/18
S26E Q27G V29E W56N T59M	-0.18 -0.46 -0.35 -0.43 -0.34 -0.39	-0.36	0/18
S25L S28E Y31M E32G S33D W56K T59Q E61L	0.49 0.41 0.38 0.35 0.46 0.54	0.44	3/18 (3.10)
S26A Q27Y V29E Y31G W56S S58N	0.22 0.37 0.35 0.21 0.37 0.56	0.35	1/18 (2.25)
S25M L30W S33Q K36F W56N A57G	0.47 0.60 0.51 0.38 0.53 0.51	0.50	3/18 (3.11)
S25L S26D S28W V29Q L30D W56Q S62Q	-0.12 -0.34 -0.42 -0.42 -0.44 -0.21	-0.32	1/18 (1.55)
S25V S26D Q27F S28L V29G L30D Y31M S38A W56S	0.17 0.00 -0.12 -0.15 -0.27 -0.07	-0.08	0/18
S25V S26H V29Q K36I W56N T59Q E61C	0.23 0.16 0.12 0.11 0.25 0.35	0.20	3/18 (2.50)
S26D Q27F V29E L30P Y31G W56D E61M	0.10 0.12 -0.22 -0.17 -0.13 0.03	-0.04	0/18
S25V Q27P V29M S33Q W56S S62N	0.18 -0.17 -0.29 0.05 -0.07 -0.04	-0.06	1/18 (2.48)
S25G S26Q S28Q V29Q L30Q K36W W56N T59Y	0.59 0.06 0.09 0.10 0.11 0.18	0.19	0/18
S25L S26E V29D N37Q W56N T59Q S62R	nd nd nd nd nd nd	nd	0/18
S25L Y31M E32G S33D W56Q S62M	0.01 -0.23 -0.28 0.07 0.21 0.11	-0.02	1/18 (1.98)
S25L S26D Q27G V29D S33Q W56E Q96A	1.73 1.58 1.95 0.87 1.59 1.04	1.46	0/18
S25M L30D Y31L K36W S38A W56M E61M S62D	0.37 0.81 0.56 0.92 0.21 0.33	0.53	0/18
S25L S26E V29S L30P W56N T59L E61C	0.08 0.16 -0.15 -0.30 0.07 -0.26	-0.07	0/18
K24H S25V Y31Q E32G S33Q W56E T59Q S62R	0.26 -0.14 -0.08 -0.17 -0.15 0.03	-0.04	1/18 (3.02)
S25Q Y31M E32G S33E W56N T59Y E61L	-0.20 0.01 -0.12 -0.26 -0.24 -0.17	-0.16	1/18 (2.11)
S25M S26Q V29N K36C W56N E61L S62W	0.65 0.49 0.57 0.50 0.66 0.76	0.60	4/18 (2.63)
S25L S26Q Q27N V29Y L30E N35M W56N T59Q E61L S62E	0.22 0.25 0.54 0.16 0.18 0.23	0.26	2/18 (2.47)
S25V Q27M S28L V29H L30D W56E Q96D	0.13 -0.01 -0.21 0.23 -0.01 0.00	0.02	1/18 (3.24)
S25L L30M Y31G E32G W56N T59Q S62Q	0.04 -0.01 -0.08 -0.23 0.02 0.10	-0.03	3/18 (2.89)
S25L S26P S28E L30W E32Q N35M W56D	0.04 0.15 0.09 -0.14 0.04 0.10	0.05	1/18 (3.89)
S25F S26E S28L Y31P S33D W56N T59L S62D	0.02 -0.18 -0.14 -0.29 -0.35 -0.14	-0.18	2/18 (3.79)
S25L Q27M L30D N35M K36C W56E S62E	1.47 0.87 0.75 0.82 1.14 1.11	1.03	0/18
S25M S26F V29E L30G Y31M K36V W56H T59Q E61L S62D	0.01 -0.01 -0.07 -0.14 0.09 0.08	-0.01	0/18
S25F S28G V29G L30P S33Q W56N T59Q	-0.05 -0.20 -0.17 -0.15 0.00 -0.02	-0.10	5/18 (2.95)
S26D V29Q S33N N35M W56D T59L	0.15 0.00 -0.03 -0.20 -0.09 0.18	0.00	2/18 (1.77)
S25L S26A Q27Y L30P W56D E61S	0.21 0.04 0.04 -0.09 0.01 0.12	0.05	1/18 (3.36)
S25Y V29N S33Q K36F W56N T59Y	nd nd nd 2.74 nd nd	2.74	0/18
S25M Y31M E32G S33G K36D W56E E61C	0.05 -0.13 -0.19 -0.24 -0.17 -0.06	-0.13	1/18 (1.99)
S25L Q27W V29M K36V W56D	-0.24 -0.19 -0.31 -0.47 -0.36 -0.20	-0.30	1/18 (3.07)
S25V S26Q Q27F S28Q E32S W56Q S58N	0.89 0.67 0.47 0.53 0.52 0.64	0.62	1/18 (2.08)
S25L Y31G S33W K36F W56H S62Q Q96D	1.69 1.62 1.88 2.76 1.60 1.64	1.87	0/18
S25L S26R V29C S33D W56N T59Q E61C	0.30 0.10 0.11 0.14 0.16 0.14	0.16	3/18 (3.28)
S25Q S26Q S28G V29M L30D W56D T59L	0.60 0.67 0.58 0.19 0.38 0.53	0.49	1/18 (2.04)
S25L S26V Q27W V29D W56G T59Q	0.36 0.22 -0.04 0.11 -0.06 0.11	0.12	0/18
K24G S25L L30E Y31Q E32L W56H T59Q S62V	0.08 0.17 0.08 0.20 0.36 0.29	0.20	0/18
S25V Q27E V29Q L30D K36F W56N S62E	0.70 0.44 0.26 0.24 0.18 0.49	0.38	2/18 (2.84)
S25V Y31G E32L S33Q N35A K36Q W56E	0.35 0.18 -0.10 0.04 0.11 0.23	0.14	0/18
S25L S26V V29E N35V S38N W56A T59Q	0.72 0.18 0.31 0.09 0.41 0.49	0.37	0/18
S25L S26Q S28L V29M N35M S38N W56N E61W	0.54 0.85 0.55 0.41 0.55 0.98	0.65	0/18

A selection of 7 entries from above:

| changes | log10 Kd, replicates | mean log10 Kd (nM) | empty controls |
|---|---|---|---|
| S25L S26N Q27I V29D L30G S33Q W56E S62D | -0.12 -0.43 -0.43 -0.51 -0.35 -0.13 | -0.33 | 1/18 (2.40) |
| S25M S26F V29E L30G Y31M K36V W56H T59Q E61L S62D | 0.01 -0.01 -0.07 -0.14 0.09 0.08 | -0.01 | 0/18 |
| S25L Y31G S33W K36F W56H S62Q Q96D | 1.69 1.62 1.88 2.76 1.60 1.64 | 1.87 | 0/18 |
| S25L S26P S28E L30W E32Q N35M W56D | 0.04 0.15 0.09 -0.14 0.04 0.10 | 0.05 | 1/18 (3.89) |
| S25V Q27P V29M S33Q W56S S62N | 0.18 -0.17 -0.29 0.05 -0.07 -0.04 | -0.06 | 1/18 (2.48) |
| S25V S26H V29Q K36I W56N T59Q E61C | 0.23 0.16 0.12 0.11 0.25 0.35 | 0.20 | 3/18 (2.50) |
| S25V S26D Y31G E32Q S38A W56A | 1.15 1.16 1.63 0.17 0.65 0.78 | 0.92 | 0/18 |

Of ten entries with the parent sequence, four were seen in most replicates (averages 0.34 to 2.37), three in one and three in none, so single entries are noisy. The range of this assay differs from that of the first round, and the authors advise against merging the two. Background: pairings of all light chain designs with three empty control strains gave a value in 4% of cases (median 2.64, 5th percentile 1.59). Values in that range, when seen in few replicates, are hard to tell from nonspecific mating. The control count says in how many pairings with the empty strains this scFv gave a signal, with their mean in brackets. In the paper, a design with two or fewer of six values counts as a poor binder.